{
  "sequences": {"note": "By UniProt entry, the sequences of proteins in these tests, tags left out. Where a name states a change or a piece, a line headed by the entry shows the natural chain unless it says otherwise.", "UniProt P41145": "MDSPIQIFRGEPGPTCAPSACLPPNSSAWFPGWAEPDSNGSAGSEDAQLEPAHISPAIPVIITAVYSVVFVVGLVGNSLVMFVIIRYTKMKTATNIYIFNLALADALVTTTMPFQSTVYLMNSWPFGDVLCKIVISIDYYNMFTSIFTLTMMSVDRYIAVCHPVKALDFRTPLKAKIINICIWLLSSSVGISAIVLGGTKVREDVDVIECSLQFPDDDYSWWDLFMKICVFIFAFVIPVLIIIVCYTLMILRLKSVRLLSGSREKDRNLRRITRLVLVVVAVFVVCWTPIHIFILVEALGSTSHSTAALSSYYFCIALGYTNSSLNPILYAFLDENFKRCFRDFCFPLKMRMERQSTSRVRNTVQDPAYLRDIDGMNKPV"},
  "source": "paper PMC1805503",
  "about": "(Beilstein Journal of Organic Chemistry, 2007)",
  "key": {"human KOR [1]": {"molecular_target": "T1, human KOR (Homo sapiens, UniProt P41145)", "T1 construct": "expressed in transfected cells; host or cells: CHO cells expressing hKOR (membranes), according to the assay names of the earlier reading", "details": "cited from earlier work"}, "human KOR [2]": {"molecular_target": "T1, human KOR", "test": "biochemical"}, "human KOR [3]": {"molecular_target": "T1, human KOR", "test": "biochemical", "assay_type": "binding"}},
  "note": "Where two headings read alike, the source gives them in different places.",
  "data": [
    {"smiles": "COC(=O)C1CC(OC(C)=O)C(=O)C2C1(C)CCC1C(=O)OC(c3ccoc3)CC12C", "note": "(stereo not drawn) [Compound 1b, 8-epi-salvinorin A]", "values": [
      {"measurement": "affinity and potency at the KOR relative to 1a", "setting": "human KOR [1]; compared with 1a", "result": "dramatically lower"}
    ]},
    {"smiles": "COC(=O)[C@@H]1C[C@H](O)C(=O)[C@H]2[C@@]1(C)CC[C@H]1C(=O)O[C@H](c3ccoc3)C[C@]21C", "note": "[Compound 2a, salvinorin B, reference compound]", "values": [
      {"measurement": "Ki", "setting": "human KOR [1]; read-out: binding affinity (Ki) at the KOR, previously reported", "result": 111, "unit": "nM"}
    ]},
    {"smiles": "COC(=O)C1CC(O)C(=O)C2C1(C)CCC1C(=O)OC(c3ccoc3)CC12C", "note": "(stereo not drawn) [Compound 2b, 8-epi-salvinorin B]", "values": [
      {"measurement": "EC50", "setting": "human KOR [2]", "result": "214 ± 33", "unit": "nM"},
      {"measurement": "Ki", "setting": "human KOR [3]", "result": "304 ± 46", "unit": "nM"}
    ]}
  ]
}
